# Source: PubChem BioAssay AID540263 (National Center for Advancing Translational Sciences (NCATS), 2011)
# Amino acid sequences for entries named in this document (tags omitted).
# UniProt Q14974, whole entry: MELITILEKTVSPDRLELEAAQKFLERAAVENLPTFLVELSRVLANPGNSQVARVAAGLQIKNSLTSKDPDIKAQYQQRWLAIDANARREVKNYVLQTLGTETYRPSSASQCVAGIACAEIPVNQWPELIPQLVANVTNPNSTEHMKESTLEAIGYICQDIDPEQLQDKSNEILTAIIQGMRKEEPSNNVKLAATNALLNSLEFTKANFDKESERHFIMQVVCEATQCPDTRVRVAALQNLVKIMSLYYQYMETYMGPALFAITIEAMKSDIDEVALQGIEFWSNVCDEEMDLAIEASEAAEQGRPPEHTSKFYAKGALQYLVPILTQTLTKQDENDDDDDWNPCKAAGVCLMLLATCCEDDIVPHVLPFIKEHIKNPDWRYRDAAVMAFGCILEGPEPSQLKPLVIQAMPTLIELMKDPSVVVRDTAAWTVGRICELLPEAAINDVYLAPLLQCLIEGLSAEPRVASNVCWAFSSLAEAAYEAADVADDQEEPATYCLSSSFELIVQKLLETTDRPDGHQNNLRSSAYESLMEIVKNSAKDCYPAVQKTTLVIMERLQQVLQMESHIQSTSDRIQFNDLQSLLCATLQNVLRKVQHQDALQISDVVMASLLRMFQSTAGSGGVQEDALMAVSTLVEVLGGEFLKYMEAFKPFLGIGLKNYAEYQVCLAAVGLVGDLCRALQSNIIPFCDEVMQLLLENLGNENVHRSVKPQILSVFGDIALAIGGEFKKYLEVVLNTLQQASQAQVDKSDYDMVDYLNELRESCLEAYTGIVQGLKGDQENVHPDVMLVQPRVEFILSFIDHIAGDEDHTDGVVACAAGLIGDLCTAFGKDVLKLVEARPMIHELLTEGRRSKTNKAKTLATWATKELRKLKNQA
# UniProt O95149, whole entry partner: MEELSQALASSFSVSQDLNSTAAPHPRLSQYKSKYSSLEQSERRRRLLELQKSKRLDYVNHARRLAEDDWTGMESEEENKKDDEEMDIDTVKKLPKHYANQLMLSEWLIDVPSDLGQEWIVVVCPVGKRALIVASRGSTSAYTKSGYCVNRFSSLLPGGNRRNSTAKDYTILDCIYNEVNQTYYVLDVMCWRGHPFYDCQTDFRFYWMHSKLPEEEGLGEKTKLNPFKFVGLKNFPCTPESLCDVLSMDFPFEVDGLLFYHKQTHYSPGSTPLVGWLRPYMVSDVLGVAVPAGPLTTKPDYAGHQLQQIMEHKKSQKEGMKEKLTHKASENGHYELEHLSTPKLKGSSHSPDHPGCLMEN
# The other results are listed elsewhere or left out. Records with an inconclusive call do not appear. The source made the active and inactive calls. The call rests on the fitted dose curve.
# Target: Importin subunit beta-1 (Homo sapiens) (UniProt Q14974)
# Test: qHTS Assay for Inhibitors of Rango (Ran-regulated importin-beta cargo) - Importin beta complex formation;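 further: 0% = DMSO wells and 100% = buffer wells lacking importin beta; nearly all actives have a fitted effect of over 15% in size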
# Conditions: Rango CFP/YFP FRET sensor + importin beta, 45 min; at 92.2 µM (top of the series)
# Description: NIH Molecular Libraries Probe Production Centers Network [MLPCN] NIH Chemical Genomics Center [NCGC] MLPCN Grant: R03 MH090808-01A1 Assay Submitter (PI): Petr Kalab NCGC Assay Overview: The small GTPase Ran regulates transport of macromolecules between the nucleus and the cytoplasm (nuclear transport) and has important functions in mitotic spindle assembly, nuclear envelope (NE) formation and nuclear pore complex (NPC) assembly. RanGTP gradient is thought to promote spindle assembly by providing a spatial clue to microtubule nucleation and Aurora A activation. Because the localized release and binding of importin alpha cargo relays this spatial clue to SAFs, inhibitors of the Rango - importin beta complex can then be used in further understanding their role in cell cycle specifically in mitosis progression. […] Activation of Aurora A has been linked to different types of cancer and a number of Aurora kinase inhibitors are being developed as potential canter therapeutics therefore, identified inhibitors of this complex could be developed into potential anti-mitotic probes for cancer treatment. Purified recombinant proteins Rango and importin beta were provided by the assay submitter. The assay used a fluorescence resonance energy transfer (FRET) Rango biosensor that contains the IBB of human snurportin 1 flanked by yellow fluorescent protein (EYFP) at the amino terminus and cerulean CFP10 at the carboxy terminus. […] Inhibitors will therefore be identified based on the ability to interfere with the FRET signal decrease. DMSO treated and no importin beta (buffer only) wells were used as negative and positive controls respectively. FRET readings were obtained at two time points. FRET reading prior to importin beta addition (pre-read) were used flag potential compound interference; FRET reading after importin beta addition (post-read) were used to identify inhibitors using the FRET ratio parameter.
# NCGC Assay Protocol Summary: Two and a half uL/well of Rango-buffer solution (50 nM Rango, 1x PBS, 1mM DTT, 0.02% Tween-20, 0.1% BSA final concentrations) was dispensed into 1536-well assay plates (Greiner, solid black medium-binding plates) with Aurora Discovery BioRAPTR Flying Reagent Dispenser (FRD; Beckton-Dickenson). Compound solution (23 nL) was transferred to the assay plate using Kalypsys pin tool equipped with a 1536-pin tool and incubated at room temperature for 5 min followed by a FRET pre-read using the PerkinElmer Envision plate reader. Two and a half uL/well of Importin beta - buffer solution (0.125 microM importin beta, 1x PBS, 1mM DTT, 0.02% Tween-20, 0.1% BSA final concentrations) were then added and incubated at room temperature giving a final reaction volume of 5uL. After 45min FRET post-read was obtained via the Envision plate reader using the same optics and settings as the pre-read (CFP/YFP optimized dual optical module D450/D505; excitation mirror CFP 430/24 nm; and emission filters CFP 486/10 nm and YFP 530/10 nm).
row,SMILES,inhibition of complex formation
1,CN1CCCCC1COC(=O)C1(O)c2ccccc2CCc2ccccc21 (stereo not drawn),inactive: 1.82%
2,COc1ccccc1OP(C)(=O)Nc1c(C)cccc1C (stereo not drawn),inactive: 0.688%
3,O=P1(Nc2ncccn2)COc2ccccc2OC1,inactive: 2.58%
4,O=[As](O)(c1cccs1)c1cccs1,inactive: 4.78%
5,Cc1ccc(OCC(=O)OC2CN3CCC2CC3)cc1 (stereo not drawn),inactive: -0.173%
6,NS(=O)(=O)c1cccc(NC(=O)COC(=O)C(O)(c2ccccc2)c2ccccc2)c1,inactive: -1.19%
7,O=P1(Nc2ccc(Br)cn2)COc2ccccc2OC1,inactive: 4.08%
8,CCCOc1ccc(NP(C)(=O)Oc2ccc(Cl)cc2)cc1 (stereo not drawn),inactive: -1.95%
9,Nc1cccc([As](=O)(O)c2ccccc2)c1,inactive: 2.04%
10,CP(=O)(Nc1ccc(SC(F)(F)F)cc1)Oc1ccccc1 (stereo not drawn),inactive: 2.88%
11,COc1cc(C2NCCC3(OCCO3)C2(C)C)cc(OC)c1OC.O=[N+]([O-])c1cc([N+](=O)[O-])c(O)c([N+](=O)[O-])c1 (stereo not drawn),inactive: 0.833%
12,Cc1nn(-c2ccccc2)c2c1P(=O)(N1CCOCC1)N(C)C(c1ccccc1)=N2 (stereo not drawn),inactive: 1.03%
13,Cc1ccc(C(=O)OC2CN3CCC2CC3)cc1 (stereo not drawn),inactive: -0.194%
14,CC1CCC(C(C)C)C(OP(=O)(Nc2ccccn2)c2ccccc2)C1 (stereo not drawn),inactive: 2.73%
15,O=C(/C=C/c1ccccc1)OC1CN2CCC1CC2 (stereo not drawn),inactive: 4.4%
16,CCCC1OP(=O)(Nc2ccccc2)OCC1CC (stereo not drawn),inactive: 0.754%
17,CC1=C2N=C(C=C3N=C(C(C)=C4[N-][C@@](C)([C@@H]5N=C1[C@](C)(CCC(=O)NC[C@@H](C)OP(=O)([O-])O[C@H]1[C@@H](O)[C@@H](n6cnc7cc(C)c(C)cc76)O[C@@H]1CO)[C@H]5CC(N)=O)[C@@](C)(CC(N)=O)[C@@H]4CCC(N)=O)[C@@](C)(CC(N)=O)[C@@H]3CCC(N)=O)C(C)(C)[C@@H]2CCC(N)=O.[C-]#N.[Co+3],inactive: -1.29%
18,CN(C)C1(CNC(=O)c2ccc(S(C)(=O)=O)cc2)CCCCC1,inactive: 6.35%
19,O=[N+]([O-])c1cc([N+](=O)[O-])c(Nc2nnnn2CCO)c([N+](=O)[O-])c1,inactive: 5.46%
20,COc1ccccc1CNC(=O)COC(=O)C(O)(c1ccccc1)c1ccccc1,inactive: 1.66%
21,O=[N+]([O-])c1cc([N+](=O)[O-])c(-c2cnn(-c3ccccc3)c2)c([N+](=O)[O-])c1,inactive: 0.0779%
22,Cc1nc2ccc3ccccc3c2s1.O=[N+]([O-])c1cc([N+](=O)[O-])c(O)c([N+](=O)[O-])c1,inactive: 3.83%
23,CC1(CBr)Cn2c(nc3ccccc3c2=O)S1 (stereo not drawn),inactive: -0.0418%
24,CN(C(=O)Cc1ccc(Cl)c(Cl)c1)[C@@H]1CCCC[C@H]1N1CCCC1,inactive: -1.73%

row,SMILES,inhibition of complex formation
1,CC(C)/C=N\N=C(\N)N[N+](=O)[O-],inactive: -2.96%
2,CCOP(=O)(Nc1ccc(C)cn1)OCC,inactive: 1.68%
3,CN(CCCl)Cc1cc(Cl)c(NC2=NCCN2)c(Cl)c1,inactive: 4.54%
4,CCC1=CC2Cc3nc4ccc(Cl)cc4c(N)c3C(C1)C2 (stereo not drawn),inactive: 2.18%
5,O=P1(Nc2ccccn2)COc2ccccc2OC1,inactive: -0.449%
6,O=[N+]([O-])c1cc([N+](=O)[O-])c(-n2nnc3ccccc32)c([N+](=O)[O-])c1,inactive: 0.372%
7,CCOP(=O)(NC(=NC(C)c1ccccc1)NC(C)c1ccccc1)OCC (stereo not drawn),inactive: -0.394%
8,CC(C)(C)C(=O)NC(Sc1ncccn1)C(Cl)(Cl)Cl (stereo not drawn),inactive: -3.44%
9,Cc1ccc(C)c(NP(C)(=O)Oc2ccccc2)c1 (stereo not drawn),inactive: -0.308%
10,Cc1cc(C)cc(OP(C)(=O)Nc2ccccn2)c1 (stereo not drawn),inactive: -2.57%
11,CP(=O)(Nc1cccc(Br)c1)Oc1ccccc1 (stereo not drawn),inactive: 0.502%
12,Nc1cccc2c([As](=O)(O)O)cccc12,inactive: 0.209%
13,Cc1ccc(NCCc2c([N+](=O)[O-])cc([N+](=O)[O-])cc2[N+](=O)[O-])cc1,inactive: 0.339%
14,CCOP(=O)(Nc1cccc2ccccc12)OCC,inactive: -0.441%
15,O=[As](O)(O)c1cccnc1,inactive: 4.52%
16,COc1cc(C(=O)NCC2(N3CCOCC3)CCCCC2)cc(Cl)c1OC(C)C,inactive: 0.309%
17,CS(=O)(=O)c1ccc(Cl)c(NC(=O)COC(=O)C(O)(c2ccccc2)c2ccccc2)c1,inactive: 1.08%
18,COc1ccccc1OP(C)(=O)Nc1cccc(Br)c1 (stereo not drawn),inactive: -6.73%
19,O=C(OC1CN2CCC1CC2)c1ccc(Cl)cc1 (stereo not drawn),inactive: 0.704%
20,CCOC(=O)c1ccc(NP(C)(=O)Oc2cc(C)cc(C)c2)cc1 (stereo not drawn),inactive: -3.16%
21,Cc1cccc(OCC(=O)OC2CN3CCC2CC3)c1 (stereo not drawn),inactive: 1.29%
22,O=[As](O)(c1cccc(O)c1)c1cccc(O)c1,inactive: 1.2%
23,Cc1cc(C)cc(OP(C)(=O)Nc2ccc(C)cc2C)c1 (stereo not drawn),inactive: 4.75%
24,NC(=O)Nc1ccc([As](=O)(O)O)cc1,inactive: 7.55%

row,SMILES,inhibition of complex formation
1,O=[N+]([O-])c1ccc2c(c1)nnn2O,inactive: -2.83%
2,CN(C)C(=O)c1cc([N+](=O)[O-])cc2c1-c1c(cc([N+](=O)[O-])cc1[N+](=O)[O-])C2=O,inactive: -2.3%
3,CC1=NCCc2c1[nH]c1ccccc21.O=[N+]([O-])c1cc([N+](=O)[O-])c(O)c([N+](=O)[O-])c1,inactive: 1.24%
4,CN(C(=O)Cc1ccc(Cl)c(Cl)c1)[C@H]1CC[C@@]2(CCCO2)C[C@@H]1N1CCCC1,inactive: -3.3%
5,N#CCCN(C(=O)COC(=O)C(O)(c1ccccc1)c1ccccc1)c1ccc(F)cc1,inactive: -3.19%
6,CN(C(=O)Cc1ccccc1)[C@@H]1CC[C@]2(CCCO2)C[C@H]1N1CCCC1,inactive: 0.288%
7,CCOP1(=S)c2c(C)nn(CCC#N)c2N=C(c2ccc(F)cc2)N1C (stereo not drawn),inactive: 2.79%
8,CCOP1(=S)c2c(C)nn(CCC#N)c2N=C(c2ccccc2F)N1C (stereo not drawn),inactive: 0.61%
9,O=P(Nc1nccs1)(Oc1ccccc1)Oc1ccccc1,inactive: -4.72%
10,O=P(Nc1nccs1)(c1ccccc1)c1nc2ccccc2s1 (stereo not drawn),inactive: -0.422%
11,O=C(O)COc1ccc([As](=O)(O)O)cc1[N+](=O)[O-],inactive: 4.88%
12,Nc1ccccc1[As](=O)(O)c1ccccc1,inactive: -1.39%
13,COc1ccccc1OP(C)(=O)Nc1ccc(C)cc1 (stereo not drawn),inactive: -0.803%
14,COC(=O)C1(C)COP(=O)(N2CCCCCC2)OC1 (stereo not drawn),inactive: -0.253%
15,CC(C)c1ccc(OP(=O)(Nc2ccccn2)Oc2ccccc2F)cc1 (stereo not drawn),inactive: 5.75%
16,Cc1ccc(NP(C)(=O)Oc2ccccc2)c(C)c1 (stereo not drawn),inactive: 0.724%
17,CCOC(=O)c1ccc(NP(C)(=O)Oc2ccccc2)cc1 (stereo not drawn),inactive: -4.42%
18,ClCCSc1nnc(-c2cccnc2)o1,inactive: 4.6%
19,Cc1cc(C)cc(OP(C)(N)=O)c1 (stereo not drawn),inactive: -1.03%
20,CC(C)NC(=O)NP(=O)(Oc1ccccc1)Oc1ccccc1,inactive: 5.87%
21,COc1ccccc1OP(C)(=O)Nc1cc(Cl)ccc1C (stereo not drawn),inactive: -0.731%
22,O=C(OC1CN2CCC1CC2)c1cccc2[nH]cnc12 (stereo not drawn),inactive: 1.86%
23,CCN(CC)C(=S)SC(NC=O)C(Cl)(Cl)Cl (stereo not drawn),inactive: -0.768%
24,COc1ccc(OP(C)(=O)Nc2cccc(F)c2)cc1 (stereo not drawn),inactive: -0.407%

row,SMILES,inhibition of complex formation
1,O=[N+]([O-])c1cc([N+](=O)[O-])c(-c2ccn[nH]2)s1,inactive: 0.819%
2,C[As](=O)(O)c1cccc(C(=O)O)c1,inactive: -0.331%
3,O=[As](O)(c1ccc(O)cc1)c1ccccc1O,inactive: -1.29%
4,O=[N+]([O-])c1ccc(-c2cc([N+](=O)[O-])c(O)c([N+](=O)[O-])c2)cc1,inactive: 5.12%
5,COc1cc(C(=O)NCC2(N3CCOCC3)CCCCC2)ccc1OCC(C)C,inactive: 1.66%
6,O=[N+]([O-])c1cc([N+](=O)[O-])c(Nc2cccnc2)c([N+](=O)[O-])c1,inactive: -2.59%
7,O=[N+]([O-])c1ccc2c(c1)C=Nc1ccccc1O2,inactive: 2.48%
8,Cc1ccc2nc3c(c(C)c2c1)CC(C(Cl)Cl)S3 (stereo not drawn),inactive: 0.426%
9,Cc1ccc(OP(=O)(Nc2ccc([N+](=O)[O-])cn2)Oc2ccc(C)cc2)cc1,inactive: -2.24%
10,CC(C)(C)c1ccc(OP(C)(=O)Nc2ccc(SC(F)(F)F)cc2)cc1 (stereo not drawn),inactive: -0.0351%
11,Cc1cccc(C)c1OP(C)(N)=O (stereo not drawn),inactive: 1.36%
12,COc1ccc(N/C(=N/P(=O)(N2CCOCC2)N2CCOCC2)N2CCOCC2)cc1,inactive: -1.06%
13,O=[N+]([O-])c1cc(Oc2ccc([N+](=O)[O-])cc2C(F)(F)F)cc([N+](=O)[O-])c1,inactive: -3.13%
14,O=C(OC1CN2CCC1CC2)C12CC3CC(CC(C3)C1)C2 (stereo not drawn),inactive: 0.518%
15,CCN(CC)CCCOC(=O)C(O)(c1ccccc1)c1ccccc1,inactive: 0.212%
16,Cc1cc(=O)[nH]c(N[N+](=O)[O-])n1,inactive: -0.654%
17,Cc1c2c(nc3ccccc13)SC(C(Cl)Cl)C2 (stereo not drawn),inactive: 1.27%
18,COc1ccc2nc(NP(=O)(c3ccccc3)c3ccccc3)sc2c1,inactive: -2.29%
19,COc1cc(I)ccc1[As](=O)(O)O,inactive: 4.13%
20,O=P1(N(CCCl)CCCl)OCCCN1CCCl (stereo not drawn),inactive: 2.62%
21,O=P1(N(CCCl)CCCl)Nc2ccccc2N1,inactive: 1.9%
